The results in this text go back to paper PMC7430649.

This data set concerns Nc1ncnc2c1ncn2[C@@H]1O[C@H](COP(=O)(O)OP(=O)(O)OP(=O)(O)O)[C@@H](O)[C@H]1O. In words: purified protein. Conditions: saturating 17mer ssDNA ODN1 (20 μM nucleotides), 10 nM Bad, 1 mM MgCl2, 50 mM NaCl, pH 8.0, 25 °C.

As a reminder, the Km is the substrate concentration at which the rate is half of its maximum. As a reminder, the kcat is the number of substrate molecules converted per active site and unit of time at saturation. As for “Bad (bacterial DNA2-like helicase-nuclease) (Geobacillus stearothermophilus)”, the Km came to 223 ± 24 µM and the kcat worked out at 101 ± 4 s⁻¹.
